Among the data in US6335348B1, “Nitrogen-containing linear and azepinyl/ compositions and uses for vision and memory disorders” (GPI NIL Holdings, Inc., priority 1998, dated 2002) are Ki values, retold here.

Protein sequences, listed by entry. Tags and fused reporters are not part of them.
UniProt P62942, whole entry, species assumed: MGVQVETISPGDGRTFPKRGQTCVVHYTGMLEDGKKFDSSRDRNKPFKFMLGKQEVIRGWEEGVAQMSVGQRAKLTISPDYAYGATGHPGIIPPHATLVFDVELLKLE

This experiment concerns the target FKBP12 (Homo sapiens, UniProt P62942). Kind of experiment: Ki test procedure: inhibition of peptidyl-prolyl isomerase (rotamase) activity, chymotrypsin-coupled assay. The class given is biochemical. Particulars: apparent Ki, Table C. The text has this: The inhibition of the prolyl peptidyl cis-trans isomerase activity of FKBP may be measured as an indicator of this affinity. Inhibition of the peptidyl-prolyl isomerase (rotamase) activity of the compounds used in the inventive methods and pharmaceutical compositions can be evaluated by known methods described in the literature (Harding et al., Nature, 1989, 341:758-760; Holt et al. J. Am. Chem. Soc., 115:9923-9938). […] The cis-trans isomerization of an alanine-proline bond in a model substrate, N-succinyl-[…]-nitroanilide, is monitored spectrophotometrically in a chymotrypsin-coupled assay, which releases para-nitroanilide from the trans form of the substrate. The inhibition of this reaction caused by the addition of different concentrations of inhibitor is determined, and the data is analyzed as a change in first-order rate constant as a function of inhibitor concentration to yield the apparent Ki values. […] The reaction is initiated by the addition of […] of substrate (succinyl-[…]-nitroanilide, 5 mg/mL in 2.35 mM LiCl in trifluoroethanol). The absorbance at 390 nm versus time is monitored for 90 seconds using a spectrophotometer and the rate constants are determined from the absorbance versus time data files.
With `COC(=O)C(=O)N1CCCCC1C(=O)OCCCCC1CCCCC1` (stereo not drawn) [Compound 17], the Ki is 6000 nM.
Under `COc1cc(C(=O)C(=O)N2CCCCC2C(=O)OCCCCC2CCCCC2)cc(OC)c1OC` (stereo not drawn) [Compound 21] stands 40 nM; under `COc1cc(C(=O)C(=O)N2CCCCC2C(=O)OCc2cccc(Oc3ccccc3)c2)cc(OC)c1OC` (stereo not drawn) [Compound 22], 18 nM.
